## AlphaSeq binding of Ab-91 heavy chain variants to a spike HR2 peptide

All variants were tested on one target, the spike HR2 peptide PDVDLGDISGINAS (SARS-CoV-2).

Parent: Ab-91, a human scFv built as VL, three GGGGS repeats, VH. Only the CDRs of the heavy chain vary.
VL: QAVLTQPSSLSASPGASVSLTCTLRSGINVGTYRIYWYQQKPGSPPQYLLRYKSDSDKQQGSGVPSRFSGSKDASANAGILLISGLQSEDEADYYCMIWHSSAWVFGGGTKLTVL
VH: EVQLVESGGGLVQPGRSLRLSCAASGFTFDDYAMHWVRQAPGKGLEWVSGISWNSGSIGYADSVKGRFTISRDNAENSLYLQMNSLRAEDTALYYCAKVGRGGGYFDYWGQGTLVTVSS

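Phage display of a naive human antibody library on the peptide gave the parent. In library AAYL51, one, two or three CDR residues were substituted; doubles and triples were drawn at random. In AlphaSeq, yeast of one mating type display the scFv and yeast of the other type display the target. The frequency of each diploid, read from paired DNA barcodes, reflects how well the two displayed proteins bind. Each replicate has its own calibration line, from reference interactions of the BCL2 family. Mating was done three times.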

The whole VH of each variant is written out.
The read-out is the apparent dissociation constant on a log10 scale (nM): the lower, the stronger.
"ND" means that the variant was in the library but no mating with the target was seen in that replicate; the authors take this as a sign of poor binding, and no number exists.
Parent in this assay: reference entry 1.86, copy in this library 0.88.
Three control strains display no target. For library AAYL51, 21% of the pairings with them gave a signal, with a median of 4.54 and one signal in twenty below 3.26, so weak values seen in few replicates may be background. For each scFv, signals with the empty controls are counted beside the result, with their mean in brackets.

| VH | log10 Kd, replicates | signal with controls |
|---|---|---|
| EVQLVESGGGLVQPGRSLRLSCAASGFTFDDYAEHWVRQAPGKGLEWVSGISWNSGSIGYADSVKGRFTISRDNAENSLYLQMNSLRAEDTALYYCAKVGRGGGGFDYWGQGTLVTVSS | ND ND ND | 1 of 9 (4.21) |
| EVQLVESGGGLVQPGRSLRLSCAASGFTFEDYAMHWVRQAPGKGLEWVSGIFRNSGSIGYADSVKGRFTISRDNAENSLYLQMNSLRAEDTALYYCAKVGRGGGYFDYWGQGTLVTVSS | 4.92 ND 5.23 | 3 of 9 (4.92) |
| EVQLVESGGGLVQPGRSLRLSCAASGFTFDDYASHWVRQAPGKGLEWVSGISWNSGSIGYAISVKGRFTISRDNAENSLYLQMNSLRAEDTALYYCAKVGRGGGIFDYWGQGTLVTVSS | 4.88 ND ND | 4 of 9 (4.95) |
| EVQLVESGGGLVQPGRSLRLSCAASGFTFDDYGMHWVRQAPGKGLEWVSGISWNSGRIGYADSVCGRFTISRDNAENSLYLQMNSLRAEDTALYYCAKVGRGGGYFDYWGQGTLVTVSS | 4.10 3.81 3.47 | 4 of 9 (4.59) |
| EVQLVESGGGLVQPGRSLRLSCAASGFTFDDYAMHWVRQAPGKGLEWVSGISWNSGSIGYADSVKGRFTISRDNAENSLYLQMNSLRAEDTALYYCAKVQRGGGYKNYWGQGTLVTVSS | 2.58 3.00 2.47 | 3 of 9 (4.92) |
| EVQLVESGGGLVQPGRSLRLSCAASGTTFDDYAMHWVRQAPGKGLEWVSGISWNSGSIGYADSVKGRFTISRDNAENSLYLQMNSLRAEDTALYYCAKVGREGGYFDYWGQGTLVTVSS | ND ND ND | 1 of 9 (1.61) |
| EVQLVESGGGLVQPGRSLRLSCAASGFTFDDYAMHWVRQAPGKGLEWVSSISWNSGSIGYADSQKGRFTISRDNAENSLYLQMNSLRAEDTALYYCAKVGRGGWYFDYWGQGTLVTVSS | ND ND ND | 0 of 9 |
| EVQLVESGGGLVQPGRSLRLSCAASGFTFDDYAMHWVRQAPGKGLEWVSGISWNSGSIGYADSCKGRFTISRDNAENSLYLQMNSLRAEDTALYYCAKVQRGGGYFDYWGQGTLVTVSS | ND ND ND | 0 of 9 |
| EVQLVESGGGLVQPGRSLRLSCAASGFTFEDYAMHWVRQAPGKGLEWVSGISWNSGSIGYADSVKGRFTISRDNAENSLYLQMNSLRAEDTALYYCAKVGRMGMYFDYWGQGTLVTVSS | 2.46 2.04 2.24 | 2 of 9 (3.80) |
| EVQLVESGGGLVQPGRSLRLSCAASGFTSDDYAMHWVRQAPGKGLEWVSGICWNSGSIGYADSGKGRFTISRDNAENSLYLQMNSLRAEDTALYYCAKVGRGGGYFDYWGQGTLVTVSS | ND 4.29 ND | 2 of 9 (3.86) |
| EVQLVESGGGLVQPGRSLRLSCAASGFTFDDYAMHWVRQAPGKGLEWVSGYSWNSGSIGYADSGKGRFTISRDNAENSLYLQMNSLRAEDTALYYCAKVGRGGGYFDWWGQGTLVTVSS | ND ND ND | 1 of 9 (3.43) |
| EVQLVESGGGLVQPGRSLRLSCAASGFTFDDAAMHWVRQAPGKGLEWVSGFSWNSVSIGYADSVKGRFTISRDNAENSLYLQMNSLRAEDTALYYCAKVGRGGGYFDYWGQGTLVTVSS | ND ND ND | 8 of 9 (4.54) |
| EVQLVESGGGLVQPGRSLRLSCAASGFTRDDYAMHWVRQAPGKGLEWVSGISWNSGSIGYADSVDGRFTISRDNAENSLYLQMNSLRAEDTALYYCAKVGRQGGYFDYWGQGTLVTVSS | 6.00 4.60 ND | 2 of 9 (3.66) |
| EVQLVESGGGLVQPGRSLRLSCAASGYTFDDYAMHWVRQAPGKGLEWVSGISWNSGSIGYADSVKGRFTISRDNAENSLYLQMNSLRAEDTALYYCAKVCRWGGYFDYWGQGTLVTVSS | ND ND ND | 0 of 9 |
| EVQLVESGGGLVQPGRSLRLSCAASGFTFDDYAMHWVRQAPGKGLEWVSGWSWNHGSIGYADSVKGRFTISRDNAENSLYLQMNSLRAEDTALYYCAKVGRGGGDFDYWGQGTLVTVSS | ND ND ND | 1 of 9 (3.22) |
| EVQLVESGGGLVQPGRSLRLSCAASYFCFDDGAMHWVRQAPGKGLEWVSGISWNSGSIGYADSVKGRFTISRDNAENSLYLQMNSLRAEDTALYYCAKVGRGGGYFDYWGQGTLVTVSS | 4.44 5.75 ND | 2 of 9 (3.97) |
| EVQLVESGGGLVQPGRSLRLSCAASGFLFDDYAMHWVRQAPGKGLEWVSGISWNSGSIGYADSVKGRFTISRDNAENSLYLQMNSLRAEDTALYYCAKVGRGGGYFDSWGQGTLVTVSS | 1.78 1.86 1.32 | 0 of 9 |
| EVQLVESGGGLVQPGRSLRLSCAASGFTFDDYAMHWVRQAPGKGLEWVSGISWVVGSIGYVDSVKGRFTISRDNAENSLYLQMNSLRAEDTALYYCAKVGRGGGYFDYWGQGTLVTVSS | ND 3.69 ND | 0 of 9 |
| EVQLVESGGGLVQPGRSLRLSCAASGFTFDDYAMHWVRQAPGKGLEWVSGISWNTGSIGYADSVKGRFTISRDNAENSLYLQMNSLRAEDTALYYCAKRRRGGGYFDYWGQGTLVTVSS | 2.69 2.58 1.95 | 2 of 9 (3.81) |
| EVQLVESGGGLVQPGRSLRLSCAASGFTFDDYAMHWVRQAPGKGLEWVSGISWNSGSIGYADSHKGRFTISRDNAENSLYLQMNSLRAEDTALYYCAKVGRGGGYFDNWGQGTLVTVSS | ND ND ND | 1 of 9 (4.12) |
| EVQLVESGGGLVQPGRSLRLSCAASGFTFDDPAMRWVRQAPGKGLEWVSGISWNSGSIGYADSVKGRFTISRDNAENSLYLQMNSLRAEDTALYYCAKVGRGGGYFRYWGQGTLVTVSS | ND ND ND | 0 of 9 |
| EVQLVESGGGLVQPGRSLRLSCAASGMTFDDYFMHWVRQAPGKGLEWVSGISWNAGSIGYADSVKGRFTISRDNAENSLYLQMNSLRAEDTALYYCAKVGRGGGYFDYWGQGTLVTVSS | ND ND ND | 1 of 9 (4.44) |
| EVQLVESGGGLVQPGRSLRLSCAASGFTFDDYAMHWVRQAPGKGLEWVSGISYNSGSGGYEDSVKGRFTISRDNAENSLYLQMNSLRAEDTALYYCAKVGRGGGYFDYWGQGTLVTVSS | ND ND ND | 2 of 9 (4.11) |
| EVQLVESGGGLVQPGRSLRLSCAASGFTFDDYVMHWVRQAPGKGLEWVSGISWNSGSIGFADSVKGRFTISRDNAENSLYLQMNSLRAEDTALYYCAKVGRGAGYFDYWGQGTLVTVSS | ND ND ND | 2 of 9 (4.29) |
| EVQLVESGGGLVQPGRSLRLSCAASGFTFDGYAMHWVRQAPGKGLEWVSGISWNHGSIGYADSVKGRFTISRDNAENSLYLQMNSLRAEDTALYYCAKVGRGGGYFDYWGQGTLVTVSS | ND ND ND | 0 of 9 |

Data: MIT Lincoln Laboratory AlphaSeq set, Engelhart et al. 2022, doi:10.1038/s41597-022-01779-4, as distributed in FLAb.